The values below are quoted from earlier work in patent publication US20250262305A1 (Aegis Therapeutics, LLC, priority 2018, published 2025).

For this series the following is noted: Mean ± SD, cited from earlier work.

SMILES strings stand for the structures.

As usually defined, the Cmax is the highest concentration seen after dosing. Regarding `CNC[C@H](O)c1ccc(O)c(O)c1` [Epinephrine, (R)-4-(1-Hydroxy-2-(methylamino)ethyl)benzene-1,2-diol], for the setting “Intramuscular (IM) 0.3 mg”, the Cmax is 0.309 ± 0.088 ng/mL. Besides, the AUC0-120 min (Intranasal (IN) 5 mg) was 19.4 ± 12.1 ng·min/mL.
